Rango dissoc inh – inhibitors of RanGTP-induced Rango-importin beta complex dissociation; O95149+P62826; Biochemical FRET Rango-importin beta, RanGTP-induced dissociation; Potency, µM (top dose mostly 46.1 µM), without a hit: top-dose activity change, negative = inhibition; hit rate 0.071% among 340,000; calls by dose curve; note: % of control where 0% means no effect; nearly all actives have a fitted effect of over 45% in size
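Rango FRET biosensor (snurportin-1 IBB flanked by N-terminal EYFP and C-terminal CFP10) at 0.1 uM, with 0.25 uM importin beta in PBS, 1mM DTT, 0.02% Tween-20, 0.1% BSA. 0.6 uM Ran, 2mM GTP and 0.2 uM RCC1 were then added for 45 min at room temperature. Inhibition read as loss of FRET rise.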
S-ASM inh – human S-ASM enzyme inhibition; P17405; placental ASM, HMU-PC fluorogenic substrate, 60 min; Potency, µM (top dose mostly 57.5 µM), inactives show at the top dose activity change, negative = inhibition, hits mostly inhibitors; hit rate 0.006% among 340,000; AID 504937
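Steps: dispense placental human ASM, pin compound, wait 10 min at room temperature, add HMU-PC0 substrate at 9 uM final, incubate 60 min at 37 °C, add stop solution raising pH to 10, read fluorescence.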
Eya2 inh – Eya2 (human) phosphatase inhibition; recombinant Eya2, OMFP fluorescence dephosphorylation (OMFP is methylfluorescein phosphate); Potency, µM (highest dose often 76.9 µM), without a hit: top-dose activity, negative = inhibition, usual class: inhibitors; hit rate 0.006% among 330,000; AID 488837; note: % is set by controls: 0 for no effect and ±100 for the full control effect
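Eya2 protein (added as 0.2 uM solution) was preincubated with compound for 10 min at ambient temperature in 50 mM HEPES pH 7.5, 50 mM NaCl, 5 uM MgCl2, 0.05% BSA, 1 mM DTT. OMFP (added at 50 uM) then reacted 10 min; fluorescence read at 485/525 nm.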
Vif-A3G inh – blocks the Vif interaction with human APOBEC3G; Q9HC16; HeLa A3G-eYFP + Vif (tagged APOBEC3G with the HIV-1 protein that degrades it), YFP fluorescence, overnight; Potency, µM (series often up to 46.1 µM), inactives show at the highest dose activity, negative = active, most hits filed as inhibitors; hit rate 0.076% among 410,000; AID 602310; note: % is set by controls: 0 for no effect and ±100 for the full control effect; nearly all actives have a fitted effect of over 60% in size
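HeLa cells stably expressing Vif and C-terminally eYFP-tagged A3G, seeded overnight at 37 deg C, then exposed to compound by pintool overnight at 37 deg C. Rise in yellow fluorescence (Ex 488/Em 500-530, Acumen) marks blocked Vif-driven A3G degradation.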
Rango-impB inh – Rango-importin beta binding inhibition; hit rate 0.031% among 340,000; Rango CFP/YFP FRET sensor + importin beta, 45 min; Potency, µM (doses to about 92.2 µM), for inactives: at the top dose inhibition of complex formation; Q14974; AID 540263; calls by dose curve;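 note: 0% = DMSO wells and 100% = buffer wells lacking importin beta; nearly all actives have a fitted effect of over 15% in size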
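FRET biosensor (snurportin 1 IBB flanked by EYFP and cerulean), 50 nM, with compound 5 min, then 0.125 microM importin beta in PBS, 1 mM DTT, 0.02% Tween-20, 0.1% BSA. CFP/YFP ratio read after 45 min at room temperature; pre-read flags interference.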
Vif-APOBEC3F blk – Vif-A3F binding inhibition; HeLa A3F-eYFP + Vif (tagged APOBEC3F with the HIV-1 protein that degrades it), YFP fluorescence increase; Potency, µM (doses to about 46.1 µM), for the others: at the top dose activity, negative = active; hit rate 0.2% among 390,000; AID 602313; note: % of control where 0% means no effect; nearly all actives have a fitted effect of over 65% in size
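HeLa cells stably expressing Vif plus C-terminally eYFP-tagged A3F were seeded, incubated overnight at 37 deg C, dosed with compound, incubated overnight again at 37 deg C. Yellow fluorescence (Ex 488/Em 500-530) reported blocked Vif-mediated A3F-eYFP degradation.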
Starred values were filed as active, the others as inactive; i = inactive; ? = inconclusive; . = no result given; [ ] = remark or other dose. Sampled rows, rich in hits. Any-hit rate of the full collection: about 0.34%. Unless noted, calls come from the whole dose curve; as a rule, active = well fitted curve in the direction sought with a large enough effect; inconclusive = small, poorly fitted or top-dose-only effect, or another doubt; inactive = no such curve, though single readings can be large; an effect the other way counts as inactive or inconclusive. Potency is the fitted concentration of half-maximal effect.

Screens in order – Rango dissoc inh	S-ASM inh	Eya2 inh	Vif-A3G inh	Rango-impB inh	Vif-APOBEC3F blk
- CCOC(=O)c1ccc(NC(=O)CSc2nc(-c3ccc(OC)cc3)cc(C(F)(F)F)c2C#N)cc1
  .	.	.	?	.	25µM*
- CCOC(=O)c1ccc(NC(=O)CSc2nc(-c3cccs3)cc(C(F)(F)F)c2C#N)cc1
  .	.	.	?	.	4µM*
- COc1ccc(NC(=O)CSc2nc(-c3cccs3)cc(C(F)(F)F)c2C#N)cc1
  .	.	.	-9%	.	?
- CN(C)C1CCC(CC2CCc3ccccc32)CC1 (stereo unspecified)
  .	.	.	-2%	.	.
- COc1ccc(-n2cc(C(=O)Oc3cc(C)cc(C)c3)c3ccccc3c2=O)cc1
  .	.	.	3%	.	-5%
- CCOC(=O)c1ccc(/C=C2/C=C(c3ccccc3)N(c3ccc(Cl)c(C(=O)O)c3)C2=O)cc1
  ?	-1%	1%	?	?	13µM*
- CCOC(=O)c1ccc(Cl)c(NC(=O)c2ccc(-c3ccccc3)cc2)c1
  -2%	-1%	3%	-10%	3%	-2%
- COc1cc(Nc2nc3ccccc3n3nnnc23)cc(OC)c1OC
  -16%	24%	24%	?	?	6.3µM*
- Clc1ccc(C2=NN(c3ccccc3)C(c3ccco3)C2)cc1 (stereo unspecified)
  ?	i	3%	0%	?	0%
- Cc1nn2c(c1-c1ccc(Cl)cc1)N=C(c1ccco1)CC2c1ccccc1 (stereo unspecified)
  -21%	-19%	0%	1%	58µM*	-1%
- CCc1ccc(NC(=O)CSc2ccc3nc(-c4ccc(OC)cc4)cn3n2)cc1
  .	.	.	-2%	.	-6%
- Cc1ccc(NC(=O)/C(C#N)=C\c2ccc(-c3ccc(Cl)cc3)o2)c(C)c1
  .	.	.	-6%	.	3.2µM*
- COc1ccc(-c2cnnc(N/N=C/c3ccc(O)cc3)n2)cc1
  -11%	-7%	5%	-23%	0%	-5%
- Oc1ccc(/C=N\Nc2nncc(-c3ccccc3)n2)cc1
  -2%	-5%	-7%	11µM*	?	-14%
- COc1ccccc1N=C1NC(=O)/C(=C/c2ccc(N(C)C)cc2)S1
  ?	-13%	?	4µM*	?	8.9µM*

In the list so far, these have a CF3 group:
Screens in order – Rango dissoc inh	S-ASM inh	Eya2 inh	Vif-A3G inh	Rango-impB inh	Vif-APOBEC3F blk
- CCOC(=O)c1ccc(NC(=O)CSc2nc(-c3ccc(OC)cc3)cc(C(F)(F)F)c2C#N)cc1
  .	.	.	?	.	25µM*
- CCOC(=O)c1ccc(NC(=O)CSc2nc(-c3cccs3)cc(C(F)(F)F)c2C#N)cc1
  .	.	.	?	.	4µM*
- COc1ccc(NC(=O)CSc2nc(-c3cccs3)cc(C(F)(F)F)c2C#N)cc1
  .	.	.	-9%	.	?

(more compounds)
Screens in order – Rango dissoc inh	S-ASM inh	Eya2 inh	Vif-A3G inh	Rango-impB inh	Vif-APOBEC3F blk
- COc1ccc2cc(C(=O)C3CCCN(Cc4ccccn4)C3)ccc2c1 (stereo unspecified)
  16%	-3%	-4%	-7%	0%	28µM*
- CCn1ccnc1CN1CCCC(C(=O)c2ccc3cc(OC)ccc3c2)C1 (stereo unspecified)
  -3%	-4%	-7%	0%	3%	?
- O=C(NCC(c1ccco1)S(=O)(=O)c1ccc(Cl)cc1)c1ccc(C(F)(F)F)cc1 (stereo unspecified)
  .	.	.	-1%	.	10%
- Cc1cc(C)c2cc3c(N)c(C(=O)Nc4c(C)[nH]c(=O)[nH]c4=O)sc3nc2c1
  -14%	16%	-4%	?	?	22µM*
- Cc1cc(C)c2cc3c(N)c(C(=O)N4CCOCC4)sc3nc2c1
  -5%	29%	-1%	-27%	?	?
- COc1cc2c(cc1OC)/C(=C/c1ccc(N(C)C)cc1)C=C2
  .	.	.	2%	.	.
- COc1ccc(OC)c(/C=C/c2cc3ccccc3cn2)c1
  .	.	.	2%	.	.
- CCOC(=O)c1cc(-c2ccc(N3CCOCC3)cc2)nn1-c1ccccc1
  -23%	?	-7%	-7%	-2%	3%
- CCOC(=O)c1cc(-c2ccc(N3CCOCC3)cc2)nn1-c1ccc(F)cc1F
  2%	28µM*	9%	-2%	-2%	-3%
- Cc1cccc(CN2C(=O)N/C(=C/c3cc(C)n(-c4cc(C)ccn4)c3C)C2=O)c1
  13µM*[inhibitor]	68%	17%	0%	?	-11%

Assay outcomes (PubChem)
